B1: DQA1*0501/DQB1*0201 (complex)
chain 1: EDIVADHVASYGVNLYQSYGPSGQYTHEFDGDEQFYVDLGRKETVWSLPVLRQFRFDPQFALTNIAVLKHNLNSLIKRSNSTAATNEVPEVTVFSKSPVTLGQPNILICLVDNIFPPVVNITWLSNGHSVTEGVSETSFLSKSDHSFFKISYLTLLPSAEESYDCKVEHWGLDKPLLKHWEPEIPAPMSELTE
chain 2: RDSPEDFVYQFKGMCYFTNGTERVRLVSRSIYNREEIVRFDSDVGEFRAVTLLGLPAAEYWNSQKDILERKRAAVDRVCRHNYQLELRTTLQRRVEPTVTISPSRTEALNHHNLLVCSVTDFYPAQIKVRWFRNDQEETAGVVSTPLIRNGDWTFQILVMLEMTPQRGDVYTCHVEHPSLQSPITVEWRAQSESAQSK
modifications: biotin on the BSP (in vivo, BirA)

What all share (conditions): both partners purified
The target of the experiment “DQA1*0501/DQB1*0201” is B1. As to the kind of experiment: AlphaScreen or HTRF. A general note: In Alpha technology, singlet oxygen from a donor bead excites a nearby acceptor bead.
For experiment [1], the target named is Peptide … (no natural source). As to the kind of experiment: AlphaScreen or HTRF; direct LOCI: α and biotinylated β chains refolded with peptide titration, 48 h at 18°C; streptavidin donor beads and anti-MHC-II antibody acceptor beads; half saturation (EC50) fitted to Y = Bmax*X/(KD+X) and taken as approximate KD; pH as optimised for each MHC (DR2a at pH 6).
For experiment [2], the target named is Oxytocinase271 peptide …. Described as above.
Experiment [3] concerns the target Peptide … (no natural source). Briefly: AlphaScreen or HTRF.

In general, Kd refers to the free concentration of one partner at which half of the binding sites on the other are occupied at equilibrium, for simple one-to-one binding. Consider YLCQVFADATPTGWGL [Hepatitis B peptide YLCQVFADATPTGWGL], for which the Kd in the experiment with DQA1*0501/DQB1*0201 stood at 1340 nM.
In the case of B1, the values for the Kd in experiment [1], in experiment [2] and in experiment [3] were 648 nM, 1090 nM and 1540 nM, respectively.

The values are drawn from article PMC2690590 (Immunome Research, 2009).
